# Measured affinities in a library of Ab-14 heavy chain variants

From the AlphaSeq antibody data of Li et al. 2023 (doi:10.1038/s41467-023-39022-2), copy in the FLAb collection.

The target is the same throughout: PDVDLGDISGINAS, from the HR2 region of SARS-CoV-2 spike.

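Phage display of a naive human antibody library on the peptide gave the parent. Designed CDR sequences, proposed from the first random library and measured here. Several design methods are mixed in this list. The scFvs were displayed on barcoded MATa yeast, the peptide on MATalpha yeast. Binding brings cells together so that they mate, and sequencing counts the barcode pairs among the diploids. Read counts were normalised to the haploid input and turned into Kd by a linear fit to BCL2-family pairs of known affinity, for each replicate. The assay was run in six technical replicates.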

Each scFv is VH, a 15-residue (Gly4Ser)3 linker, VL, as in the parent Ab-14, and differs from it in the CDRs of the heavy chain only.
VH: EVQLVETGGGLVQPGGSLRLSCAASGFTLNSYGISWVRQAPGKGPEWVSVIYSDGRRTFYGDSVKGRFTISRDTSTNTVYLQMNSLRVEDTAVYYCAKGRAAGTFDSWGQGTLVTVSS
VL: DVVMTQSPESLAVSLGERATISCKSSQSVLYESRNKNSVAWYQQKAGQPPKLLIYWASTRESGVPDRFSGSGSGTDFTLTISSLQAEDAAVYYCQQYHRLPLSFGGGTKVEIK

Positions count from residue 1 of the parent VH; S31E puts E in place of S.
Variants here have at most six changes.
The Kd shown is the geometric mean over detected replicates; a lower Kd is a better binder.
Where no diploid with the target was found in any replicate, the entry reads "nd": below detection, most likely a poor binder, though not proof of it.

Variant S31E I51Q Y52F G55N G61T A101F showed 130 nM (1 of 6 replicates). With T28E R100K A101T S107C the result was nd (0 of 6 replicates). Variant T28D S63K T104G showed nd (0 of 6 replicates). For S31E R56E F59Q A102H, the assay gave nd (0 of 6 replicates). Variant T28E S31Q G61S T104H showed nd (0 of 6 replicates).

Variant N30E R100Q A101E showed 10 nM (6 of 6 replicates). With T28V S31Q G61S the result was 3.1 nM (6 of 6 replicates). With S31E A101N S107K the result was 8.1 nM (6 of 6 replicates). Variant T28D S31E S53A G61T R100N A101L showed 150 pM (6 of 6 replicates). Variant T28V S31E A101M gave nd (0 of 6 replicates).

Variant N30D R100Q S107R showed 10 nM (5 of 6 replicates). Variant G26L G99R gave nd (0 of 6 replicates). Variant T28D G61T A101T showed 1.7 nM (6 of 6 replicates). With S31D D106W S107D the result was nd (0 of 6 replicates). Variant T28S S31Q R100Q S107V showed 1.3 nM (6 of 6 replicates).

Variant S53A S63D R100E D106K showed 10 nM (5 of 6 replicates). Variant R56K T58L F59A D62G D106V S107G gave nd (0 of 6 replicates). Variant T28S G61K R100N A101T gave 590 pM (6 of 6 replicates). For T28N G61A R100K A101Q, the assay gave 810 pM (6 of 6 replicates). Variant T28Q S63A A101T gave 20 nM (6 of 6 replicates).

Variant T28Q G61A F105K gave nd (0 of 6 replicates). Variant S53A R100Q S107V gave 1.1 nM (6 of 6 replicates). Variant T28Q G61S R100E showed 1.8 nM (6 of 6 replicates). Variant L29I S31T G61K R100Y A102R gave nd (0 of 6 replicates). For T28N G61A R100H A101E, the assay gave nd (0 of 6 replicates).

Variant T28D G61L R100W A101T gave 2.6 nM (6 of 6 replicates). With T28N S63D the result was 14 nM (6 of 6 replicates). Variant S31E A101D G103C showed nd (0 of 6 replicates). With T28Q S31D T104S F105I the result was 52 nM (6 of 6 replicates). With T28R G61D R100Q A101T the result was nd (0 of 6 replicates).

Variant S35H S53A R56F D106S showed 21 nM (6 of 6 replicates). With T28G L29M R100E S107Q the result was nd (0 of 6 replicates). Variant T28S F59A A102H gave 5.2 µM (3 of 6 replicates). Variant T28E G61A R100K A101E showed 760 pM (6 of 6 replicates). With T28E G61Q A101Q the result was 2.9 nM (3 of 6 replicates).

For T28P S31E A101M, the assay gave 5.6 nM (5 of 6 replicates). Variant T28S S31D S107K showed 2.9 nM (6 of 6 replicates). For S31E G61M G103V S107Q, the assay gave nd (0 of 6 replicates). For N30E S53A D106K, the assay gave nd (0 of 6 replicates). Variant G26K T28S S31N R100W A101T showed 3.3 nM (6 of 6 replicates).

Variant R56Y A102R gave nd (0 of 6 replicates). Variant T28E G61Q R100N gave 2.0 nM (6 of 6 replicates). Variant T28Q S31D G61A R100N showed 41 nM (3 of 6 replicates). Variant T28D G61V A101I gave 3.9 nM (6 of 6 replicates). For T28H Y32Q S53A G61T A101I, the assay gave 1.9 nM (6 of 6 replicates).

Variant T28D R57I D62A A101G T104W D106N gave nd (0 of 6 replicates). Variant T28M S53A S107P showed nd (0 of 6 replicates).

The closing 5 entries, repeated:

{"changes": "T28Q S31D G61A R100N", "apparent Kd": "41 nM", "replicates with signal": "3/6"}
{"changes": "T28D G61V A101I", "apparent Kd": "3.9 nM", "replicates with signal": "6/6"}
{"changes": "T28H Y32Q S53A G61T A101I", "apparent Kd": "1.9 nM", "replicates with signal": "6/6"}
{"changes": "T28D R57I D62A A101G T104W D106N", "apparent Kd": "nd", "replicates with signal": "0/6"}
{"changes": "T28M S53A S107P", "apparent Kd": "nd", "replicates with signal": "0/6"}

Of ten entries with the parent sequence, four were seen in most replicates (averages 2.2 nM to 240 nM), three in one and three in none, so single entries are noisy.
The authors averaged sequences with at least three values out of six and counted those with two or fewer as poor binders.
Three control strains display no target. For all heavy chain designs, 1% of the pairings with them gave a signal, with a median of 120 nM and one signal in twenty below 7.0 nM, so weak values seen in few replicates may be background.
Values of this round are not directly comparable with the first-round values of the same sequences.